# Tested on: memory/learning dysfunctions in the passive avoidance response
# Assay: Passive avoidance response test, drug administered alone without MK-801
# Format: in vivo, Wistar male rats
# Conditions: drug alone without MK-801, passive avoidance response, rats
# Method: Then, 10 seconds later, a slide door set at the border between the dark box and the light box was opened. Due to the habits of the rats, once the rats entered into the dark box, the slide door was quickly closed. At three seconds after entering into the dark box, an electroconvulsive shock ([…], for 3 seconds) was given to the rats. The period between the time just after the slide door was opened and the time at which the rats entered into the dark box was measured as a step-through latency. […] On Day 2 of the experiment, the testing session was carried out about 24 hours after the training session. […] The procedures of the testing session were carried out in the same manner to the training session except that no electroconvulsive shock was given. The step-through latency at the testing session was measured up to 300 seconds, and the step-through latency over 300 seconds was regarded as 300 seconds. […] The statistical analysis of the % of animals avoiding was done by x^2 test with Bonferroni's correction. The animals were used in a group of 10 to 25 animals per group, and the data was expressed by percentage.
compound,measurement,value
"Cc1cc2c(s1)Nc1ccccc1N=C2N1CCN(C)CC1 [Olanzapine, olanzapine]",Minimum dose to induce memory dysfunction by single application,"3 mg/kg, p.o"

# — patent US8835438B2, “Method of treating memory/learning dysfunctions caused by schizophrenia with lurasidone” (Sumitomo Dainippon Pharma Co., Ltd., priority 2004, dated 2014)
